The values that follow come from ChEMBL document CHEMBL1152554, “Synthesis and pharmacological evaluation of 6-naltrexamine analogs for alcohol cessation” (Bioorg Med Chem, 2009).

By UniProt entry, the sequences of proteins in these tests, tags left out. Where a name states a change or a piece, a line headed by the entry shows the natural chain unless it says otherwise.
UniProt P41145: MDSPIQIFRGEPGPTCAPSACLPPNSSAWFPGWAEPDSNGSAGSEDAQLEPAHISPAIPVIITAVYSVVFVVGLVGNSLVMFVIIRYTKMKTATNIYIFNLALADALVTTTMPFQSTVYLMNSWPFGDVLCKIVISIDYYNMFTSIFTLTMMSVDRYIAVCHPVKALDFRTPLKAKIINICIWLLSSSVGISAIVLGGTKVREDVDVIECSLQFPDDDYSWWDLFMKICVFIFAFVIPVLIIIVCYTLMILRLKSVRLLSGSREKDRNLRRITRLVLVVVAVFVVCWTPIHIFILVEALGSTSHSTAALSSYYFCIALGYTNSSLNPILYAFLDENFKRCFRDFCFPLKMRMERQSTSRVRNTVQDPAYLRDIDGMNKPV
UniProt P41143, whole entry: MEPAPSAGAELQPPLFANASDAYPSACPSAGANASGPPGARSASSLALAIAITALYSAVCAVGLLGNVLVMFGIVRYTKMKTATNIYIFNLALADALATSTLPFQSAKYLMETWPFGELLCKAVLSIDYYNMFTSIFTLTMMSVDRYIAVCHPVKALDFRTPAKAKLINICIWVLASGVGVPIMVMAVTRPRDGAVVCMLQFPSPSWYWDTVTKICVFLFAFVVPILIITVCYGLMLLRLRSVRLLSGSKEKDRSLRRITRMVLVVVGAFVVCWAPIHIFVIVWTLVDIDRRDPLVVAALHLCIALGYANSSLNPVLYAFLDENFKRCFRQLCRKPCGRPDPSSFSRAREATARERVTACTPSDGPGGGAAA
UniProt P41146: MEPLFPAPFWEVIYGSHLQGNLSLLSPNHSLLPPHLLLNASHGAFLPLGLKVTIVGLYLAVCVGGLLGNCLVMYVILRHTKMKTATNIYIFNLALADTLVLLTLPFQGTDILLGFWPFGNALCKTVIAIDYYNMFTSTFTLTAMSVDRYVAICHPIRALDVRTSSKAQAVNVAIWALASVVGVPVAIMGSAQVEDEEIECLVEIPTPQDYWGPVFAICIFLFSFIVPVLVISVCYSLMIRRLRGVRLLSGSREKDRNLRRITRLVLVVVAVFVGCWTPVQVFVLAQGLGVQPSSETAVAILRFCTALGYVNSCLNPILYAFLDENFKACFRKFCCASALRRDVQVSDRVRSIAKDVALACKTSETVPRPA

A value given as a limit tells only on which side of the number the result lay.

The species named for experiment [1] is Rattus norvegicus. The experiment is described as follows: animal or person. The following applies: Wistar, sc.
In experiment [2] the target is Kappa-type opioid receptor (Homo sapiens, UniProt P41145).
Experiment [3] addresses Delta-type opioid receptor (Homo sapiens, UniProt P41143).
The next experiment concerns the target Nociceptin receptor (Homo sapiens, UniProt P41146). The experiment is described as follows: Activity at NOP expressed in HEK293 cells assessed as stimulation of [35S]GTPgammaS binding relative to basal level. Type of experiment: functional, cell-based. For orientation: GTPγS is a poorly hydrolysed GTP analogue; its binding reports G protein activation.
The subject of experiment [4] is Rattus norvegicus. The experiment can be described thus: Inhibition of saccharin intake in Wistar rat at 6.25 mg/kg, sc by saccharin-self administration test. Type of experiment: functional. Details: scale not given: the % may be the effect or the level left. The following applies: route subcutaneous.

Take `O=C(N[C@@H]1CC[C@@]2(O)[C@H]3Cc4ccc(O)c5c4[C@@]2(CCN3CC2CC2)[C@H]1O5)c1ccc(Br)cc1.O=C(O)C(=O)O`: it took a dose of 0.042 mg/kg to reach the 50% effect level in the experiment listed under Rattus norvegicus [1] (ED50).
Regarding `O=C(N[C@@H]1CC[C@@]2(O)[C@H]3Cc4ccc(O)c5c4[C@@]2(CCN3CC2CC2)[C@H]1O5)c1ccc(I)cc1.O=C(O)C(=O)O`, the EC50 in experiment [2] and in experiment [3] was over 10000 nM each time. Besides, the ED50 in the experiment filed under Rattus norvegicus [1] came to 0.038 mg/kg.
In the case of `O=C(N[C@@H]1CC[C@@]2(O)[C@H]3Cc4ccc(O)c5c4[C@@]2(CCN3CC2CC2)[C@H]1O5)c1ccc(Cl)cc1`, on Nociceptin receptor, the Emax was 0%.
For the compound `Cc1ccc(C(=O)N[C@@H]2CC[C@@]3(O)[C@H]4Cc5ccc(O)c6c5[C@@]3(CCN4CC3CC3)[C@H]2O6)cc1.O=C(O)C(=O)O`, the half-maximal effective concentration (EC50) in experiment [2] is 2.4 nM; in experiment [3] it was over 10000 nM. For the same compound, in the experiment listed under Rattus norvegicus [1], the ED50 was determined as 0.25 mg/kg.
For `CC(C)(C)c1ccc(C(=O)N[C@@H]2CC[C@@]3(O)[C@H]4Cc5ccc(O)c6c5[C@@]3(CCN4CC3CC3)[C@H]2O6)cc1.O=C(O)C(=O)O`, in that order: 0.4 nM, 0.3 nM and 0.05 mg/kg.
Regarding `O=C(N[C@@H]1CC[C@@]2(O)[C@H]3Cc4ccc(O)c5c4[C@@]2(CCN3CC2CC2)[C@H]1O5)c1ccc(C(F)(F)F)cc1.O=C(O)C(=O)O`, the EC50 in experiment [2] and in experiment [3] was over 10000 nM in each case. The same compound yielded an ED50 in the experiment listed under Rattus norvegicus [1] of 0.019 mg/kg. This compound also came in with an Activity with Rattus norvegicus [4] of 23.8%.

The ED50 is the dose that gives a 50% effect, or the effect in half of the subjects. As usually defined, the EC50 is the concentration needed to bring the measured effect to its halfway point. One may read the Emax as the size of the effect at its maximum, as opposed to the concentration needed.
